Experiments:
[1] = HCG with calorie restriction, in six weeks, if protocol strictly followed; cited from earlier work
[2] = Applicant's HCG / enhanced HCG low calorie diet protocol, experience and observation in treated participants; assay type: in vivo, human
Excerpt: A human body's deep fat reserve is broken down after prolonged severe calorie restriction, or after using HCG with calorie restriction. Protocol participants cannot be insulin dependent diabetics nor have active cancer. Protocol participants must have a recent complete blood count test (CBC) and metabolic profile. Protocol participants have to keep a one week log of everything they eat prior to inclusion within the HCG protocol. […] Protocol participants that meet these requirements are candidates for the initial counseling session.
The counseling session selects protocol participants through a psychological screen to determine if there are any issues which would prevent a protocol participant from following the diet. Issues such as severe carbohydrate craving, inability to cook, or not having anyone to cook for the protocol participant would eliminate a potential participant from participating in the diet. Protocol participants are informed that in order to lose weight with this program, they must adapt their lifestyle as described herein to maintain the weight loss. […]
After three or six weeks, depending on the amount of weight loss desired and participant motivation, protocol participants enter phase two of the diet. […] The rate and amount of calorie increase is determined by the physician during an office visit near the end of phase one. […]

[3] = cited from earlier work

Substance: human chorionic gonadotropin [HCG]
- weight loss [1]: up to 35 lbs.
- percent of people who get hungry while on the protocol ([2]; low calorie diet with HCG regimen): approximately 20%
- patients who experienced little or no hunger ([2]; over 150 people treated with HCG protocol, over eighty with enhanced formula): about 80%
- group reporting little or no hunger ([3]; Simeons protocol, double-blind): about 80%
- people who still experience hunger ([3]; protocol of Dr. Simeons, as illustrated by the 1973 Asher and Harper study): approximately 20%
- mean weight lost ([3]; subjects completing at least 30 injections, Simeons protocol): about 20 lbs

From patent US8614184B2, “HCG formulations for achieving weight loss” (priority 2010, dated 2013)
